Consider twelve compounds from US10906905B2, “Five-membered heteroaryl ring bridged ring derivative, preparation method therefor and medical use thereof” (Jiangsu Hengrui Medicine Co., Ltd., priority 2016, dated 2021).

Each structure is given as a SMILES string. Like-named read-outs stand apart in the source and are kept apart here.

In data set [1] the test system is Smad signaling pathway of TGFβRI. The data set can be described thus: Inhibition of Smad signaling pathway of TGFβRI (3TP-lux luciferase reporter in HepG2 cell). The note with it: read-out: IC50 on the inhibition of Smad signaling pathway of TGFβRI, 3TP-lux plasmid, 18 hours. (In general: In a reporter assay the amount or activity of a reporter protein is the signal.)

In the next data set the test system is NIH3T3 cell. As to the kind of experiment: Inhibition of NIH3T3 cell proliferation (CellTiter-Glo). The format is cell-based. The note with it: read-out: IC50 on the inhibition of NIH3T3 cell proliferation, 72 hours, 0.5% FBS. (In general: In ATP-based viability assays light output follows the ATP content of the culture.)
Data set [2] in a line: Pharmacokinetics assay in rats after intragastrical administration. The note with it: SD rats, 2 mg/kg.

Turning to `Cc1cccc(-c2nc3n(c2-c2ccnc(-c4ccc(C(N)=O)cc4)c2)C2CCC3C2)n1` (single isomer, unassigned) [The compound with retention time of 4.058 minutes among 4-1 ], the IC50 in data set [1] turned out to be 0.027 µM; with NIH3T3 cell, 0.039 µM.

On to `NC(=O)c1nnc2ccc(-c3c(-c4ccc(F)cn4)nc4n3C3CCC4C3)cn12` (single isomer, unassigned) [The compound with retention time of 13.001 minutes among 9-1], for which the IC50 in data set [1] stood at 0.094 µM.

Consider `Cc1cccc(-c2nn3c(c2-c2ccnc4ccc(C(N)=O)cc24)C2CCC3C2)n1` (single isomer, unassigned) [The compound with retention time of 7.992 minutes among 35-1], for which the IC50 in data set [1] is 0.087 µM.

As to `Cc1cccc(-c2nc3n(c2-c2ccnc(-c4cnn(C)c4)c2)C2CCC3C2)n1` (single isomer, unassigned) [The compound with retention time of 2.955 minutes among 12-1], the IC50 in data set [1] turned out to be 0.009 µM; in the data set on NIH3T3 cell (listed as The compound with retention time is 2.955 minutes among 12-1 and 12-2) it was 0.037 µM.

Regarding `Cc1cccc(-c2nc3n(c2-c2ccnc(-c4ccc(C(=O)NC5CCOCC5)cc4)c2)C2CCC3C2)n1` (single isomer, unassigned) [The compound with retention time of 5.418 minutes among 17-1], in data set [1], the IC50 stood at 0.071 µM.

Regarding `Cc1cccc(-c2nc3n(c2-c2ccc4nccnc4c2)C2CCC3C2)n1` (single isomer, unassigned) [The compound with retention time of 3.747 minutes among 6-1 ], the IC50 in data set [1] came to 0.004 µM; with NIH3T3 cell, 0.04 µM.

As for `NC(=O)c1nnc2ccc(-c3c(-c4ccc(F)cn4)nc4n3C3CCC4C3)cn12` (single isomer, unassigned) [The compound with retention time of 6.631 minutes among 9-1 ], in data set [1], the IC50 turned out to be 0.029 µM. In data set [2], the “Apparent distribution volume Vz/F” value amounted to 7.675 ± 1.629 L/kg, the “Area under curve AUC” value came to 0.914 ± 0.41 µg·h/mL, the “Clearance CLz/F” value is 2.59 ± 1.19 L/h/kg and the “Half-life T1/2” value is 2.39 ± 1.04 h. In data set [2], the “Plasma concentration Cmax” value turned out to be 0.386 ± 0.148 µg/mL and the “Residence time MRT” value was found to be 2.60 ± 0.60 h. Besides, the IC50 in the data set with NIH3T3 cell came to 0.069 µM.

On to `Cc1cccc(-c2nc3n(c2-c2ccnc(-c4ccc(C(=O)NC5CCOCC5)cc4)c2)C2CCC3C2)n1` (single isomer, unassigned) [The compound with retention time of 9.196 minutes among 17-1], for which the IC50 in data set [1] is 0.038 µM.

For `Cc1cccc(-c2nc3n(c2-c2ccnc(-c4ccc(C(N)=O)cc4)c2)C2CCC3C2)n1` (single isomer, unassigned) [The compound with retention time of 7.204 minutes among 4-1 ], in data set [1], the IC50 amounted to 0.06 µM.

With `Cc1cccc(-c2nc3n(c2-c2ccnc(-c4cnn(C)c4)c2)C2CCC3C2)n1` (single isomer, unassigned) [The compound with retention time of 4.695 minutes among 12-1], the IC50 was 0.013 µM in data set [1]; 0.041 µM in the data set on NIH3T3 cell (listed as The compound with retention time is 4.695 minutes among 12-1 and 12-2).

With `Cc1cccc(-c2nn3c(c2-c2ccnc4ccc(C(N)=O)cc24)C2CCC3C2)n1` (single isomer, unassigned) [The compound with retention time of 7.153 minutes among 35-1], the IC50 in data set [1] was determined as 0.056 µM.

As to `Cc1cccc(-c2nc3n(c2-c2ccc4nccnc4c2)C2CCC3C2)n1` (single isomer, unassigned) [The compound with retention time of 5.327 minutes among 6-1 ], the IC50 in data set [1] amounted to 0.003 µM; with NIH3T3 cell, 0.018 µM.
